Assay [1] concerns the target T1, ACTH (MCR-2) receptor endogenous to murine Y1 adrenocortical cells (Mus musculus, UniProt Q64326).
T1 construct: the ACTH (MCR-2) receptor endogenous to murine Y1 adrenocortical cells; endogenous in cells; host or cells: murine Y1 adrenocortical cells
Nature of the assay: cAMP concentration-response to ACTH-(1-24) in Y1 cells. Type of assay: cell-based. The conditions noted are these: read-out: EC50 of ACTH-(1-24) alone. As for the experimental part: Peptide concentration-response measurements are made in HEK-293 cells by quantifying cAMP levels using a [8-^3H]-CAMP kit from Amersham. Briefly, cells transfected with MC receptors, plated to confluency in 96-well tissue culture plates, are rinsed for 1 hr with 70% (vol/vol) L-15 medium containing 0.5% bovine serum albumin. […] Cellular debris was separated from extracted samples by centrifugation, 400 μL aliquots of the supernatant lyophilized, and total cAMP content quantified by isotope counting.
Concentration response measurements were made also as described in Example 2, but in Xenopus fibroblasts, COS-7, HEK-293, and Y1 cells.

Amino acid sequences for entries named in this document (tags omitted). A change or cut given only in a name is not applied to a line headed by its entry.
UniProt Q64326: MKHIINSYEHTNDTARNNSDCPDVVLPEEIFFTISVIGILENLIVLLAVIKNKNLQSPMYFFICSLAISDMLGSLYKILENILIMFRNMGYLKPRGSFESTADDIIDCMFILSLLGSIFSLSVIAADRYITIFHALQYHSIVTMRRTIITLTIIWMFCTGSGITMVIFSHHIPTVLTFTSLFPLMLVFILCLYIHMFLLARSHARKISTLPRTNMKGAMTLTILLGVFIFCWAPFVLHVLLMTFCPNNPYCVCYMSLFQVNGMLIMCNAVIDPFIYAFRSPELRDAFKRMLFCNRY
UniProt P41968: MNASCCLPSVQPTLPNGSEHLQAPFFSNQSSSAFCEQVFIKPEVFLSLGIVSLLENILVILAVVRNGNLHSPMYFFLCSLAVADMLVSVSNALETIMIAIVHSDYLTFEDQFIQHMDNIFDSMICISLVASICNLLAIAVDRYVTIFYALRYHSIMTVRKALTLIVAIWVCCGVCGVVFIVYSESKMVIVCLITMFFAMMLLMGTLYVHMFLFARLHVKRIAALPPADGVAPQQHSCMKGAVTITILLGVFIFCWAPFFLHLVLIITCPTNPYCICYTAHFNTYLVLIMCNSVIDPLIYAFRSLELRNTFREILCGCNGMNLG

Assay [2] has as its target MCR-3 (Homo sapiens, UniProt P41968). Nature of the assay: cAMP concentration-response to α-MSH in HEK-293 cells transfected with human MCR-3. Also on record: expressed in transfected cells. Format: cell-based. The conditions noted are these: read-out: EC50 for α-MSH alone, Example 3. An excerpt:
A second method for studying MCR antagonists is to use mammalian cells stably transfected with the cDNA for various human MCR. These transfected cells manifest an increased CAMP response to α-MSH stimulation and agents which antagonize MCR will block this stimulating effect of α-MSH. The inhibitory effects of antagonists can be quantified by the change in the effective concentration (EC50) of α-MSH i the presence of antagonist, or by computation of Ki value by a Schild regression analysis.
Peptide concentration-response measurements are made in HEK-293 cells by quantifying cAMP levels using a [8-^3H]-CAMP kit from Amersham. Briefly, cells transfected with MC receptors, plated to confluency in 96-well tissue culture plates, are rinsed for 1 hr with 70% (vol/vol) L-15 medium containing 0.5% bovine serum albumin. After a 30 min exposure to test ligands, HEK-293 cells are rinsed twice with ice-cold 70% phosphate-buffered saline (0.07 g/L CaCl2, 0.07 g/L MgCl2.6H2O, 0.14 g/L KH2PO4, 1.51 g/L Na2HPO4.7H2O, 0.14 g/L KCl, 5.6 g/L NaCl, pH 7.4), and intracellular CAMP extracted with 1 mL of 60% (vol/vol) ethanol. Cellular debris was separated from extracted samples by centrifugation, 400 μL aliquots of the supernatant lyophilized, and total cAMP content quantified by isotope counting.
HEK-293 cells were maintained and transfected As described in Example 2. […]

By EC50 is commonly meant the concentration giving half of the maximal effect. Turning to ACTH-(1-24), the EC50 in assay [1] was 1.8 ± 1.2 nM.

As for α-MSH, the concentration for a half-maximal effect (EC50) in assay [2] was 4.2 ± 2.1 nM.

For the origin of these results see patent publication US6953779B2, “Melanocortin receptor antagonists and modulations of melanocortin receptor activity” (The Regents of the University of California, priority 1998, dated 2005).
